# Values of other authors, collected in patent publication US20130023585A1, “Neuraminidase Inhibitors” (TSRL, INC., priority 2010, published 2013).
# Tested on: influenza virus neuraminidase
# Settings: cited from earlier work
compound,measurement,setting,value
"CCC(CC)O[C@@H]1C=C(C(=O)O)C[C@H](NC(=N)N)[C@H]1NC(C)=O [GOC, 4-guanidinio oseltamivir carboxylate]",fold more potent inhibitor in vitro,,approximately 2 fold
same,IC50,"read-out: IC50, inhibitor of influenza virus neuraminidase",900 pM
